Most compounds without a hit are left out; they make up all but 0.34% or so of the library.
Cneo AK release: Cryptococcus neoformans cell lysis inducers, primary screen, AK release luminescence, single concentration. C. neoformans lysis, adenylate kinase release luminescence, 4 h; normalised: neutral wells 0, clomiphene wells 100. lysis activity, % at 15 µM. actives 0.2% (n = 360,000). AID 651654, 2012;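 active = mean lysis activity across replicates of at least 80%, whatever share of replicates individually reach that level; inactive = mean lysis activity below 80%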
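Material: C. neoformans cells | Amount: Yeast cell density of 5 × 10^6 cells/mL | Medium: Fresh YPD growth medium | Dosing: Single dose | Times: Static 4 h at 37 °C with compound, 1 h detection | Detection: AK luminescence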
Yeast UUG start: alters start codon recognition fidelity in yeast. S. cerevisiae UUG-firefly luciferase reporter, luminescence/redox ratio. 350,000 tested, 0.13% active. activity score, % at 18.7 µM. AID 602363;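 active means replicate mean at a twofold rise or more, about +100% in these data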;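 further: firefly luciferase made from a UUG start codon reports start codon fidelity; reporter light over untreated wells divided by growth signal over untreated wells; some hits fall short of that in this replicate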
PDI inh: inhibitors of human PDI, primary screen, biochemical, turbidity, single point, plate reader. Protein disulfide-isomerase (Homo sapiens), P07237. PDI insulin aggregation turbidity, A650, 90 min. inhibition, % at 10 µM. actives 0.052% (n = 350,000). AID 588391, 2011;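 active = mean inhibition across replicates of 30% or more, whatever share of single replicates reach that level; inconclusive = mean inhibition below 30% while every single replicate reaches 30%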
ERp5 block: inhibitors of ERp5-driven insulin aggregation, primary screen, biochemical, turbidity, absorbance 650 nm, single point | Protein disulfide-isomerase A6 (Homo sapiens), Q15084 | 90 min | inhibition, % at 9.99 µM | actives 0.05% (n = 350,000) | AID 651711, 2012;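 active = mean replicate inhibition above about 25%, with every replicate also reaching it, limit read from the data, passing the limit was not always enough; inconclusive = only one of those two criteria met; inactive = neither criterion met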
A number is an active result; – = inactive; ? = inconclusive; · = not tested or not shown; ! = repeats disagree.

Chains of the proteins cited; added tags and fusions are not shown.
Protein disulfide-isomerase (Homo sapiens), P07237, UniProt P07237, whole entry, looked up: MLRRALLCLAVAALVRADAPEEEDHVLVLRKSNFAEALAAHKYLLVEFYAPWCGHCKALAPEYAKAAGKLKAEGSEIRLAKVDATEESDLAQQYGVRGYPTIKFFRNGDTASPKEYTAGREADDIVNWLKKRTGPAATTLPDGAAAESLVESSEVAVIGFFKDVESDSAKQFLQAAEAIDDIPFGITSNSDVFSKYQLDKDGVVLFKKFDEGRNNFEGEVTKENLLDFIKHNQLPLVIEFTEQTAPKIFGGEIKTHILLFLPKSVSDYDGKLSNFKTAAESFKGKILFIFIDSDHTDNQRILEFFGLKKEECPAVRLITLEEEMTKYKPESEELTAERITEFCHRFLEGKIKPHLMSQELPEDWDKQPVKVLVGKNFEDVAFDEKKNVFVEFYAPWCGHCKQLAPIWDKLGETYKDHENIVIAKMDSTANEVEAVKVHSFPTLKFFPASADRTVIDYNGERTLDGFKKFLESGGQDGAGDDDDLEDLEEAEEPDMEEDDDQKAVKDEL
Protein disulfide-isomerase A6 (Homo sapiens), Q15084, UniProt Q15084, whole entry, looked up: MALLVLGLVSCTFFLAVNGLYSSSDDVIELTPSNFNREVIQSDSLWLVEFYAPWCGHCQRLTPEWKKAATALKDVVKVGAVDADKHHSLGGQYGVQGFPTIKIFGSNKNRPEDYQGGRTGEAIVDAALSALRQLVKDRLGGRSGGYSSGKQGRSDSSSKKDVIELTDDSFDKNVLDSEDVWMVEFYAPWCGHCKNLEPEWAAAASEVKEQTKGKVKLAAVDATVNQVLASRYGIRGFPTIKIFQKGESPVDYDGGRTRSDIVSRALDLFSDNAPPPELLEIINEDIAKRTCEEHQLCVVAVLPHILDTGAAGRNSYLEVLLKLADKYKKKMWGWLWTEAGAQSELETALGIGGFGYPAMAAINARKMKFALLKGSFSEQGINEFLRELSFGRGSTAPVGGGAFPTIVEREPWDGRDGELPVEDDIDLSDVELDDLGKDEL

SMILES	Cneo AK release	Yeast UUG start	PDI inh	ERp5 block
CC=Cc1ccc2n(c1=O)C[C@@H]1[C@@H](CO)[C@H](C(=O)NCc3ccc4c(c3)OCO4)[C@H]2N1C(=O)C1CC1 (mixture of isomers)	101.1	·	·	–
CN(C)C(=O)C[C@H]1CC[C@H]2[C@@H](COC[C@H](O)CN2S(=O)(=O)c2ccccc2)O1	–	·	·	–
CC=Cc1ccc2n(c1=O)C[C@@H]1[C@@H](CO)[C@H](C(=O)NCCC)N(Cc3cccc(F)c3)[C@H]21 (mixture of isomers)	–	·	·	–
CC(C)CC#Cc1ccc([C@@H]2[C@@H](CO)N3CCCCN(S(=O)(=O)Cc4ccccc4)C[C@@H]23)cc1	–	–	·	–
COc1ccc(N=C2S/C(=C\c3ccc(N4CCOCC4)o3)C(=O)N2CCc2c[nH]c3ccccc23)cc1	–	–	–	·
COc1ccc(N=C2S/C(=C\c3ccc(OCC(=O)O)cc3)C(=O)N2CCc2c[nH]c3ccccc23)cc1	·	·	–	31.5
C[C@@H]1CN([C@H](C)CO)S(=O)(=O)c2ccc(-c3ccc(C(=O)N(C)C)cc3)cc2O[C@H]1CN(C)C(=O)Cc1ccccn1	93.2!	–	–	–
CC(C)C#Cc1ccc2c(c1)O[C@H](CN(C)C(=O)C1CC1)[C@H](C)CN([C@@H](C)CO)S2(=O)=O	–	–	·	–
CC(C)CC#Cc1ccc2c(c1)O[C@H](CN(C)C(=O)C1CCC1)[C@H](C)CN([C@@H](C)CO)S2(=O)=O	–	–	·	–
CC(C)CC#Cc1ccc2c(c1)O[C@H](CN(C)C(=O)C1CCC1)[C@@H](C)CN([C@@H](C)CO)S2(=O)=O	108.7	–	·	–
CC(C)CC#Cc1ccc2c(c1)O[C@@H](CN(C)C(=O)C1CCC1)[C@@H](C)CN([C@H](C)CO)S2(=O)=O	100.0	–	·	–
CC(C)C#Cc1ccc2c(c1)O[C@@H](CN(C)C(=O)C1CC1)[C@@H](C)CN([C@@H](C)CO)S2(=O)=O	–	–	·	61.1
CCC(=O)N1CC(=O)N2[C@H](CO)[C@H](c3ccc(-c4ccccc4F)cc3)[C@H]2C1	·	·	·	–
C[C@@H]1CN([C@@H](C)CO)S(=O)(=O)c2ccc(-c3ccccc3)cc2O[C@H]1CN(C)C(=O)C1CCCCC1	111.7	–	·	–
C[C@H]1CN([C@@H](C)CO)S(=O)(=O)c2ccc(-c3ccccc3)cc2O[C@@H]1CN(C)C(=O)C1CCCCC1	–	–	·	–
Cc1ccc(C(=O)n2nnc3ccccc32)cc1[N+](=O)[O-]	91.4	–	–	·
O=C(C[C@H]1CC[C@H]2[C@@H](COC[C@@H](O)CN2C(=O)Nc2ccc(Cl)cc2)O1)N1CCCCC1	87.4	–	·	–
O=C(C[C@H]1CC[C@H]2[C@@H](COC[C@H](O)CN2C(=O)Nc2ccc3c(c2)OCO3)O1)N1CCN(c2ccccc2)CC1	90.9	·	·	–
O=C(C[C@@H]1CC[C@H]2[C@@H](COC[C@H](O)CN2C(=O)Nc2ccc(Cl)cc2)O1)N1CCCCC1	–	–	·	–
O=C(C[C@@H]1CC[C@H]2[C@@H](COC[C@@H](O)CN2C(=O)Nc2ccc(Cl)cc2)O1)NCCc1ccncc1	99.7	·	·	–
O=C(C[C@@H]1CC[C@@H]2[C@H](COC[C@@H](O)CN2C(=O)Nc2ccc3c(c2)OCO3)O1)N1CCN(c2ccccc2)CC1	–	·	·	–
Cc1ccc(S(=O)(=O)N(C)C[C@@H]2OCCCC[C@@H](C)Oc3ccc(N(C)C)cc3C(=O)N([C@H](C)CO)C[C@H]2C)cc1	–	–	·	–
O=C(Nc1ccncc1)C1CC(=O)N(c2ccccc2)C1 (stereo unspecified)	–	–	–	28.0
C[C@H]1CN([C@@H](C)CO)C(=O)c2cc(NC(=O)NC3CCCCC3)ccc2O[C@H]1CN(C)S(=O)(=O)c1ccccc1	–	–	·	–
O=C(CC1CC1)N1[C@H](CO)[C@H]2c3ccccc3N(S(=O)(=O)c3ccccc3)C[C@H]21	–	–	·	?
SMILES	Cneo AK release	Yeast UUG start	PDI inh	ERp5 block
O=C(CC1CC1)N1[C@@H]2CN(S(=O)(=O)c3ccccc3)c3ccccc3[C@@H]2[C@@H]1CO	106.3	–	·	–
CO[C@@H]1CN(C)C(=O)c2cc(NS(=O)(=O)c3cccc(C)c3)ccc2OC[C@@H](C)NC[C@H]1C	103.9	–	·	–
CO[C@H]1CN(C)C(=O)c2ccc(NS(=O)(=O)c3ccc(Oc4ccccc4)cc3)cc2OC[C@H](C)NC[C@H]1C	–	·	·	–
COc1cccc(S(=O)(=O)Nc2ccc3c(c2)OC[C@@H](C)NC[C@H](C)[C@@H](OC)CN(C)C3=O)c1	98.0	–	·	–
CO[C@@H]1CN(C)C(=O)c2ccc(NS(=O)(=O)c3ccc(Oc4ccccc4)cc3)cc2OC[C@H](C)NC[C@H]1C	98.9	·	·	–
CO[C@@H]1CN(C)C(=O)c2cc(NS(=O)(=O)c3ccc(C)cc3)ccc2OC[C@@H](C)N(C)C[C@@H]1C	139.0	–	·	–
CC=Cc1ccc2n(c1=O)C[C@H]1[C@H](CO)[C@@H](C(=O)N3CCC(Cc4ccccc4)CC3)N(C)[C@@H]21 (mixture of isomers)	–	·	·	·
COc1ccc(S(=O)(=O)NC[C@H]2CC[C@H]3[C@H](CN3Cc3cc(F)ccc3F)O2)cc1	·	·	·	–
CO[C@@H]1CN(C)C(=O)c2cc(NS(=O)(=O)C3CCCCC3)ccc2OC[C@H](C)NC[C@@H]1C	85.6	·	·	–
COc1cccc(-c2ccc3c(c2)[C@H]2[C@H](CCN2C(=O)Cc2ccncc2)[C@H](CO)N3C)c1	90.9	–	·	–
CC(C)NC(=O)N1CC[C@@H]2[C@@H](CO)N(C)c3ccc(-c4cccc(F)c4)cc3[C@@H]21	92.4	–	·	·
CCC(=O)N1CC[C@@H]2[C@H]1c1cc(-c3cccc(OC)c3)ccc1N(C)[C@@H]2CO	–	–	·	–
CC(C)NC(=O)Nc1ccc2c(c1)CC(=O)N([C@@H](C)CO)C[C@@H](C)[C@@H](CN(C)C(=O)Nc1ccc(F)cc1)O2	–	–	·	–
C[C@H](CO)N1C[C@H](C)[C@@H](CN(C)C(=O)C2CCOCC2)Oc2ncc(C#CCc3ccccc3)cc2C1=O	86.4	–	·	–
C[C@H]1CN([C@@H](C)CO)C(=O)c2cc(C#Cc3ccccn3)cnc2O[C@H]1CN(C)Cc1ccncc1	94.0	–	·	–
C[C@@H]1CN([C@H](C)CO)C(=O)c2cc(C#CCN(C)C)cnc2O[C@H]1CN(C)Cc1cccc(F)c1	–	–	·	56.7
C/C=C/c1cnc2c(c1)C(=O)N([C@@H](C)CO)C[C@@H](C)[C@@H](CN(C)C(=O)C1CCCCC1)O2	105.4	–	·	–
C[C@H]1CN([C@@H](C)CO)C(=O)c2cc(C#CCc3ccccc3)cnc2O[C@H]1CN(C)C(=O)C1CCOCC1	–	–	·	–
C[C@H](CO)N1C[C@H](C)[C@H](CN(C)Cc2ccncc2)Oc2ncc(C#Cc3ccccn3)cc2C1=O	–	–	·	–
C[C@@H]1CN([C@@H](C)CO)C(=O)c2cc(C#CCN(C)C)cnc2O[C@@H]1CN(C)Cc1cccc(F)c1	–	–	·	·

Bioassay records (PubChem)
